Assay results taken from US6472152B1 (priority 1998, dated 2002).

Assays:
[1] = tested on: Salmonella typhimurium TA104 pr1; test: VITOTOX test, toxicity evaluated by pr1 S/N curves; settings: for Toxic (pri): without S9-mix, within the dose-range tested
[2] = tested on: TA104 recN2-4 and TA104 pr1 strain; test: VITOTOX test, ratio of recN2-4 S/N over pr1 S/N (rec/pr1); settings: without S9-mix; for concentration at which S/R's of rec/pri >1.5 MAX: ratio of maximal S/N values; for concentration at which S/R's of rec/pri >1.5 MEAN: ratio of mean S/N values
[3] = tested on: Salmonella typhimurium TA104 recN2-4; test: VITOTOX test, light production (S/N) in the recN2-4 tester strain; settings: for concentration at which S/R > 2 (recN2 − 4): without S9-mix, maximal S/N, 60-240 min

| Compound | Toxic (pri) [1] | concentration at which S/R's of rec/pri >1.5 MAX [2] | concentration at which S/R's of rec/pri >1.5 MEAN [2] | concentration at which S/R > 2 (recN2 − 4) [3] | toxicity evaluation ([1]; light production, without S9mix) | concentrations toxic for Salmonella typhimurium TA104 ([1]; without S9mix, FIG. 2) | dose neither genotoxic nor toxic ([3]; recN2-4 strain, FIG. 2) |
| --- | --- | --- | --- | --- | --- | --- | --- |
| O=C1c2cc([N+](=O)[O-])cc([N+](=O)[O-])c2-c2c1cc([N+](=O)[O-])cc2[N+](=O)[O-] | + | 0.16 ppm | 0.04 ppm | 0.08 ppm |  |  |  |
| CdCl2 | + |  |  |  |  |  |  |
| H2O2 | + | 4 ppm | 2 ppm | 2 ppm |  |  |  |
| K2Cr2O7 | + | 4 ppm | 4 ppm | 4 ppm |  |  |  |
| ZnCl2 | + |  |  |  | only the lowest dose appeared to be devoid of any toxicity | higher than 7.4 μM | 3.7 µM |
